## Measured affinities in a library of Ab-14 heavy chain variants

The target is the same throughout: PDVDLGDISGINAS, from the HR2 region of SARS-CoV-2 spike.

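The starting antibody came from a phage panning campaign against this peptide. Designed CDR sequences, proposed from the first random library and measured here. Their group label is 14H_En_Gibbs (En: ensemble of fine-tuned language models; Gibbs: Gibbs sampling). Affinity was read by AlphaSeq, a pooled yeast mating assay with surface-displayed partners. Pairs that bind mate more often; barcode pairs of the diploids are counted by sequencing. Each replicate has its own calibration line, from reference interactions of the BCL2 family. There are six technical replicates.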

Ab-14 is the parent antibody, in scFv form: VH, then a (GGGGS)3 linker, then VL. The light chain is unchanged in all variants.
VH: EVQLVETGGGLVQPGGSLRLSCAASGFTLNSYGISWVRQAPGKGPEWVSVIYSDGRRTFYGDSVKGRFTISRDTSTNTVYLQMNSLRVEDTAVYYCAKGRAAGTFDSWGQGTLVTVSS
VL: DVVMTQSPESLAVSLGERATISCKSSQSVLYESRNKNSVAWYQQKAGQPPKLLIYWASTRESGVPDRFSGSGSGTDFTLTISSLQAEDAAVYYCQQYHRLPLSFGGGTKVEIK

Each variant is given by its three heavy chain CDRs, as the data file delimits them; those of the parent are GFTLNSYGIS, VIYSDGRRTFYGDSVK, GRAAGTFDS.
Scale: log10 of Kd in nM, estimated from mating counts; low values are strong binders.
A mean of the replicates is given; it leaves out those without a signal.
"ND" marks a missing value. The strain was present, yet no cells mated with the target were sequenced in that replicate, which points to weak or no binding.

CDR-H1 | CDR-H2 | CDR-H3 | replicates, log10 nM | mean log10 Kd (nM) | signal with controls
GFNLDEYGIS | VIYADGKRSHYTDKVK | GTFGDFMMV | ND ND ND ND ND ND | ND | 0/18
GFDFQEYGIS | VIYADGQRANYSDSVK | GNIGAIFSD | ND ND ND ND ND ND | ND | 0/18
GNDLEEYGIS | VIYADGMRTAAVDSVK | GDQSGTVVF | ND ND ND ND ND ND | ND | 0/18
GFNLEEYGIS | VIYADGFRASYQDDVK | GQNGSVNLR | ND ND ND ND ND ND | ND | 0/18
GYDIQDYGIS | VIYADGVRVAYHDSVK | GQMAGFFLL | ND ND ND ND ND ND | ND | 0/18
GQDLKEYGIS | VIYADGKRSYYVQDVK | GTNVGQGTF | ND ND ND ND ND ND | ND | 1/18 (1.46)
GDGLDEYGIS | VIYADGMRSSYSNDVK | GTNFGNKMV | ND ND ND ND ND ND | ND | 0/18
GFNLSEYGIS | VIYADGMRSEYADNVK | GHKGNAFID | ND ND ND ND ND ND | ND | 1/18 (2.35)
GFDLEEYGVS | VIYADGHRTQYSDNVK | GVESASIQN | ND ND ND ND ND ND | ND | 0/18
GFNIQDYGIS | VIYADGSRTAYAEPVK | GNIGGTIDT | ND ND ND ND ND ND | ND | 0/18
GFDIDEYGVS | VIYADGFREAYAESVK | GLIQTGFTV | ND ND ND ND ND ND | ND | 0/18
GFSLDEMGIS | VIYADGQRTAYQASVK | GQNIGNVFV | ND ND ND ND ND ND | ND | 0/18
GNDLQEYGIS | VIYADGMRNQYAQSVK | GMEAGVFVY | ND ND ND ND ND ND | ND | 0/18
GQSLDEYGIS | VIYADGQRKAYMDSVK | GNGQGTLFD | ND ND ND ND ND ND | ND | 0/18
GFNLNEYGIS | VIYADGVRYAYIDSVK | GVVTLKNLY | ND ND ND ND ND 2.08 | 2.08 | 0/18
GDILEEYGIS | VIYADGMRTYYEDSVK | GNVNGVFFI | 1.18 0.78 0.98 ND 1.08 1.99 | 1.20 | 0/18
GFDLGEYGIS | VIYADGHRRAYSDDVK | GAHSGSVQT | ND ND ND ND ND ND | ND | 0/18
GEDLSEYGIS | VIYADGERRSYANSVK | GGVSGNFSS | ND ND ND ND ND ND | ND | 0/18
GFNLDEYGIS | VIYADGRRNAYRDKVK | GAHDFDLKT | ND ND ND ND ND ND | ND | 0/18
GFGLNEYGIS | VIYADGVRTAYLQNVK | GINSGFDQT | ND ND ND ND ND ND | ND | 0/18
GVNLDEYGIS | VIYADGVRSHYAESVK | GMHGTFGVV | ND ND ND ND ND ND | ND | 0/18
GFDLDEYGIS | VIYADGVREAYIDSVK | GNWSGTDMY | ND ND ND ND ND ND | ND | 0/18
GFDLQEYGIS | VIYADGSRTAYNQNVK | GLTLDSYVV | ND ND ND ND ND ND | ND | 0/18
GFDLDQYGIS | VIYADGMRAGYADSVK | GHWGGKFLI | ND ND ND ND ND ND | ND | 0/18
GFLIDEFGIS | VIYADGKRTSYSDTVK | GQLGNAFDL | ND ND ND ND ND ND | ND | 0/18
GMGLSEYGIS | VIYADGMRTSYDNSVK | GAWAGTFDE | ND ND ND ND 1.14 ND | 1.14 | 0/18
GKSLDEYGIS | VIYADGARAFYANDVK | GNITDVFGK | ND ND ND ND ND ND | ND | 0/18
GYDLNEYGIS | VIYADGNRNAYANNFK | GLHNGFFII | ND ND ND ND ND ND | ND | 0/18
GFSIDEYGIS | VIYADGVRTAVDPSVK | GQLAAYFDK | 0.31 0.60 0.54 0.55 0.90 0.92 | 0.64 | 0/18
GFNLDEYGIS | VIYADGRRVAYANNVK | GKNGMFFSN | ND ND ND 3.05 ND ND | 3.05 | 3/18 (2.78)
GFHLDEYGIS | VIYADGMRSQYADNVK | GGIRAYFTQ | ND ND ND ND ND ND | ND | 0/18
GFNLDEYGIS | VIYADGIRAAYKDKVK | GDDILLGWD | ND ND ND ND ND ND | ND | 0/18
GFSIDEYGIS | VIYADGMRTATVNSVK | GTIDNNITT | 1.07 0.73 1.15 1.37 0.80 0.68 | 0.97 | 0/18
GFDLTEYGIS | VIYADGVRTHYADNVK | GKSDGTNMA | ND ND ND ND ND ND | ND | 1/18 (2.26)
GFNLNEYGIS | VIYADGLRANYTDSVK | GNNRIVRLD | ND 3.30 ND ND ND ND | 3.30 | 0/18
GQSLDDYGIS | VIYADGQRKYAVDEVK | GEVAGTFDI | 0.54 1.21 0.18 -0.21 0.23 0.58 | 0.42 | 0/18
GKDLQEYGVS | VIYADGHRASYADSVK | GNHAGYLDK | ND ND ND ND ND ND | ND | 1/18 (2.64)
GFNLNEYGIS | VIYADGQRTKYIDNVK | GTVRVLAMG | ND ND ND ND ND ND | ND | 0/18
GFNISEYGIS | VIYADGRRTSYKNTVK | GNLTWLFDV | ND ND ND ND ND ND | ND | 0/18
GFDLDEMGIS | VIYADGRRTAYSNAFK | GNNQYGLMV | ND ND ND ND ND ND | ND | 1/18 (2.55)
GFNLSEYGIS | VIYADGRRTAYKDTVK | GVRTWLFDL | ND ND ND ND ND ND | ND | 1/18 (2.20)
GDSLEEYGIS | VIYADGKRKAYKNKAK | GQVAGYFDV | ND ND ND 0.91 ND ND | 0.91 | 0/18
GRNLDEYGIS | VIYADGQRTSYIDNVK | GGDSVHFDM | ND ND ND ND ND ND | ND | 0/18
GFDLAEYGIS | VIYADGMRNAYAQNFK | GYIGGTIMY | ND ND ND ND ND ND | ND | 0/18
GFDLMEYGIS | VIYADGIRSKVTDNVK | GMLTGTAVV | ND ND ND ND ND ND | ND | 0/18
GFDINEMGIS | VIYADGQRLAYAQEVK | GKNTGTFTF | ND ND ND ND ND ND | ND | 0/18
GNTLDEYGIS | VIYADGSRMAYADKFK | GMDVGTFDQ | ND ND ND ND ND ND | ND | 1/18 (2.36)

The opening 5 entries, copied out:

CDR-H1	CDR-H2	CDR-H3	replicates, log10 nM	mean log10 Kd (nM)	signal with controls
GFNLDEYGIS	VIYADGKRSHYTDKVK	GTFGDFMMV	ND ND ND ND ND ND	ND	0/18
GFDFQEYGIS	VIYADGQRANYSDSVK	GNIGAIFSD	ND ND ND ND ND ND	ND	0/18
GNDLEEYGIS	VIYADGMRTAAVDSVK	GDQSGTVVF	ND ND ND ND ND ND	ND	0/18
GFNLEEYGIS	VIYADGFRASYQDDVK	GQNGSVNLR	ND ND ND ND ND ND	ND	0/18
GYDIQDYGIS	VIYADGVRVAYHDSVK	GQMAGFFLL	ND ND ND ND ND ND	ND	0/18

Values of this round are not directly comparable with the first-round values of the same sequences.
Background: pairings of all heavy chain designs with three empty control strains gave a value in 1% of cases (median 2.08, 5th percentile 0.84). Values in that range, when seen in few replicates, are hard to tell from nonspecific mating. Also given: how often the same scFv was detected with the empty control strains, with their mean in brackets.
The parent sequence was in this pool as ten entries: three were never detected, three once, and four in most replicates, with averages from 0.34 to 2.37.
The authors averaged sequences with at least three values out of six and counted those with two or fewer as poor binders.

Source: Li et al. 2023 (doi:10.1038/s41467-023-39022-2), MIT Lincoln Laboratory and A-Alpha Bio; data file from the FLAb repository.